# AlphaSeq binding of Ab-95 light chain variants to a spike HR2 peptide

The target is the same throughout: PDVDLGDISGINAS, from the HR2 region of SARS-CoV-2 spike.

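The starting antibody came from a phage panning campaign against this peptide. The library (AAYL52) carries one to three amino acid substitutions per variant, with no insertions or deletions. The assay is AlphaSeq: two haploid yeast populations carry antibody and antigen on their surface. The frequency of each diploid, read from paired DNA barcodes, reflects how well the two displayed proteins bind. A regression on co-assayed BCL2-family reference pairs converts the normalised counts of each replicate to an apparent Kd. Mating was done three times.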

Ab-95 is the parent antibody, in scFv form: VH, then three GGGGS repeats, then VL. The heavy chain is unchanged in all variants.
VH: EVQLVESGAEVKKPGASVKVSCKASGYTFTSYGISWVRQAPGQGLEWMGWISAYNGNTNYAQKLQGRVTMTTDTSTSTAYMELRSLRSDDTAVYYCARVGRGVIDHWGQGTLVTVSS
VL: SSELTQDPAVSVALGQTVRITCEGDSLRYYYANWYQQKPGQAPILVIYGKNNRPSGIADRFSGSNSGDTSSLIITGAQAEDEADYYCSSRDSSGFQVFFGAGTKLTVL

The parent's light chain CDRs are EGDSLRYYYAN, GKNNRPS, SSRDSSGFQVF; each variant's own CDRs replace them letter for letter. The read-out is the apparent dissociation constant on a log10 scale (nM): the lower, the stronger. An entry "nd" has no value in the source: the pair was not observed among the diploids in that replicate. This suggests poor binding but is not conclusive.

| # | CDR-L1 | CDR-L2 | CDR-L3 | log10 Kd, replicates | signal with controls |
|---|---|---|---|---|---|
| 1 | EGDSYRSYYAN | GKNNRPS | SSRDSSGFQVG | 4.60 / 2.90 / 2.38 | 6/9 (4.21) |
| 2 | EGLSLRYYGAN | GSNNRPS | SSRDSSGFQVF | 2.01 / 1.58 / 1.42 | 1/9 (4.29) |
| 3 | AGDSLRYYYAN | GKNGRPS | SSRDSSGFAVF | 2.53 / 2.49 / 2.41 | 5/9 (3.80) |
| 4 | EVDSLRYYYAN | GKNNSPS | SSRDSPGFQVF | 4.87 / nd / nd | 2/9 (4.46) |
| 5 | EGASLRYYYAN | GKNNRPS | SSRDSDGFQGF | nd / nd / nd | 1/9 (3.47) |
| 6 | CGESLRYYYAN | GKNNRPS | SSRDSSKFQVF | 4.02 / 4.86 / nd | 3/9 (3.94) |
| 7 | EGDSLRYMYAN | QKNLRPS | SSRDSSGFQVF | 2.46 / 2.51 / 1.31 | 2/9 (4.41) |
| 8 | EGDSLRCYYAF | GKNNRPS | SWRDSSGFQVF | 3.66 / nd / 3.48 | 3/9 (3.92) |
| 9 | EGDSLRYYYAN | FKNMRPS | SSRDSSGFQVF | nd / nd / nd | 2/9 (3.88) |
| 10 | EGDSLRYLYAI | GKNQRPS | SSRDSSGFQVF | 4.44 / nd / 3.48 | 3/9 (3.89) |
| 11 | EGDSLRYYYAN | IKNNRPS | SSRDSSGFFVI | nd / nd / nd | 2/9 (4.41) |
| 12 | EGDSLRYYYAN | NKNNRPS | SSRDSSGFQVH | 2.81 / 2.76 / 3.28 | 3/9 (4.08) |
| 13 | EGDSLRYYYAN | GKNNRPS | SSNQASGFQVF | 1.10 / 1.16 / 1.08 | 1/9 (2.38) |
| 14 | EGDSLRYLYAN | GKNNRPS | SDRTSSGFQVF | 2.90 / 2.11 / 2.30 | 3/9 (3.80) |
| 15 | EQDSLRYYYMN | GKNNRPS | SSKDSSGFQVF | nd / 3.46 / nd | 3/9 (3.60) |
| 16 | EGFSLRYYYAN | GKNFRPS | SKRDSSGFQVF | 4.41 / 4.22 / nd | 1/9 (5.19) |
| 17 | EYDSLRYYDAN | GKNNRPS | SCRDSSGFQVF | 1.84 / 1.82 / 1.57 | 3/9 (4.29) |
| 18 | EGDGTRYYPAN | GKNNRPS | SSRDSSGFQVF | 2.38 / 2.32 / 2.24 | 3/9 (4.42) |
| 19 | EGDSLRYYYAN | GKRLRPS | WSRDSSGFQVF | 4.34 / 3.62 / 3.35 | 1/9 (3.54) |
| 20 | EGDSLRYHLAN | GKNNRPE | SSRDSSGFQVF | 1.34 / 1.00 / 0.44 | 2/9 (3.89) |
| 21 | EGDSLKYYYAN | GKNNRPS | SSGDSSGFQVM | 4.91 / 3.20 / nd | 1/9 (4.29) |
| 22 | EGDSLRYYYAG | GKNVRPS | SSRDSSGFQVD | 2.93 / 3.89 / 4.37 | 1/9 (3.40) |
| 23 | EWDSLRYYYAN | GKNNRPS | SSRDSSGKQVF | 3.10 / 3.49 / 3.35 | 4/9 (3.81) |
| 24 | EGDSLRYYYAD | GYNNRPS | SSRMSSGFQVF | nd / nd / nd | 4/9 (3.43) |
| 25 | EGDSLRYYYAN | GKNLRPN | SSRDSSKFQVF | 4.85 / 4.24 / nd | 0/9 |
| 26 | EGDSLRSYYAN | GWNNRPS | SSRDSSGFQEF | 3.74 / 2.50 / 2.11 | 2/9 (3.27) |
| 27 | EHDSLRYYYAN | GKNVHPS | SSRDSSGFQVF | 3.61 / 3.37 / 3.99 | 4/9 (4.06) |
| 28 | EGDSLRYQYAN | GKNNKPS | SSRDISGFQVF | 0.97 / 0.83 / 0.39 | 2/9 (3.65) |
| 29 | EGDSLRYYYAN | GKINAPS | SLRDSSGFQVF | 5.16 / 4.14 / nd | 3/9 (4.28) |
| 30 | EGDSLRYYIAN | GKNDRPS | SSRDSSGFQVF | 3.22 / 5.49 / nd | 0/9 |
| 31 | EFDSLRYEYAN | GKNNRPS | SCRDSSGFQVF | 1.99 / 2.04 / 1.64 | 4/9 (4.19) |
| 32 | EKDSLRYYYAN | GINNRCS | SSRDSSGFQVF | 4.99 / nd / nd | 2/9 (4.40) |
| 33 | EGDSLRYYYAN | GKRNRPS | SSRDSSGFLVI | nd / 3.74 / nd | 2/9 (4.43) |
| 34 | EGDSCTYYYAN | GKNNRPS | SSRDISGFQVF | 3.70 / 3.40 / nd | 3/9 (3.28) |

A selection of 4 entries from above:

{"CDR-L1": "EGDSCTYYYAN", "CDR-L2": "GKNNRPS", "CDR-L3": "SSRDISGFQVF", "log10 Kd, replicates": "3.70 / 3.40 / nd", "signal with controls": "3/9 (3.28)"}
{"CDR-L1": "EGFSLRYYYAN", "CDR-L2": "GKNFRPS", "CDR-L3": "SKRDSSGFQVF", "log10 Kd, replicates": "4.41 / 4.22 / nd", "signal with controls": "1/9 (5.19)"}
{"CDR-L1": "EGDSYRSYYAN", "CDR-L2": "GKNNRPS", "CDR-L3": "SSRDSSGFQVG", "log10 Kd, replicates": "4.60 / 2.90 / 2.38", "signal with controls": "6/9 (4.21)"}
{"CDR-L1": "EQDSLRYYYMN", "CDR-L2": "GKNNRPS", "CDR-L3": "SSKDSSGFQVF", "log10 Kd, replicates": "nd / 3.46 / nd", "signal with controls": "3/9 (3.60)"}

Parent in this assay: reference entry 2.31, copy in this library 2.25. As a blank, each scFv also met three strains without target: over library AAYL52, 28% of these pairings were detected, typically at 3.91 and seldom below 2.90. For each scFv, signals with the empty controls are counted beside the result, with their mean in brackets.

The measurements come from Engelhart et al. 2022 (doi:10.1038/s41597-022-01779-4) through the FLAb antibody collection.